According to PubChem BioAssay AID743126 (The Scripps Research Institute Molecular Screening Center, 2013):
Only a part is listed here, and it is no random draw. Some results for these compounds are left out of this collection, so the calls shown say nothing about other tests. Active and inactive are the calls of the source.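 The calls were made as follows: active = inhibition above mean plus 3 SD of compounds lying within the high and low control bounds (cut at about 19% in these data); inactive = the rest.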

Chains of the proteins cited; added tags and fusions are not shown.
UniProt Q9NZ20, whole entry: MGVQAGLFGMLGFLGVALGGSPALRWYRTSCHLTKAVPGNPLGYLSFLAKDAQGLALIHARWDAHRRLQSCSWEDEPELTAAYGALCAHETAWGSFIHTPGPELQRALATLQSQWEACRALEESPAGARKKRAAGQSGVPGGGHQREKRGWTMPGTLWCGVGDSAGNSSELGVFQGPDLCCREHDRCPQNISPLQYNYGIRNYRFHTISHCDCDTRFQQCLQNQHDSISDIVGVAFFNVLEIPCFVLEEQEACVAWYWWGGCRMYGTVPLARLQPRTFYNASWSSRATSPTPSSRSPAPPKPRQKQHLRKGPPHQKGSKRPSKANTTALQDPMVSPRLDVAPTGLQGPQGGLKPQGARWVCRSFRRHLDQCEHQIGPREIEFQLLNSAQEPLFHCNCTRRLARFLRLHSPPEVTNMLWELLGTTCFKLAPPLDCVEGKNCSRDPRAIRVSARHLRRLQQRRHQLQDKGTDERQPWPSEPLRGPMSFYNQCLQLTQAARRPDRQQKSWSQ

What follows are compounds tested against Group 3 secretory phospholipase A2 (Homo sapiens) (UniProt Q9NZ20) (assay: HGIII-sPLA2 enzyme inhibition – biochemical, QFRET, BODIPY PC-A2 liposome substrate, primary screen (AID 743126;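 also: 0% = median of test compound wells and 100% = no enzyme DMSO wells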)). Conditions: QFRET BODIPY PC-A2 liposome hydrolysis, fluorescence; at 12.2 µM; hits give high values.
For `COc1cc(C(=O)NCC2(N(C)C)CCCCC2)c([N+](=O)[O-])cc1OC`, the inhibition was inactive: 10.2%.
With `CN(C)C1(CNC(=O)c2ccc(Br)cc2)CCCCC1` the inhibition was inactive: 5.1%.
In the case of `O=C(NCC1(N2CCCCC2)CCCCC1)c1cccc(Cl)c1`, the inhibition is reported as inactive: 12.7%.
For `COc1cccc(C(=O)NCC2(N3CCCCC3)CCCCC2)c1`, the inhibition was inactive: -0.77%.
In the case of `COc1ccc(Cl)cc1C(=O)NCC1(N(C)C)CCCCC1`, the inhibition is reported as inactive: -6.78%.
With `O=C(OC1CN2CCC1CC2)C(CO)(c1ccccc1)c1ccccc1` (stereo unspecified) the inhibition was inactive: -1.07%.
In the case of `CC(C)Oc1ccc(C(=O)NCC2(N(C)C)CCCCC2)cc1`, the inhibition is reported as inactive: 14.1%.
For `O=C(OCCN1CCCC1)C(O)(c1ccccc1)c1ccccc1`, the inhibition was inactive: -1.1%.
In the case of `CN(C)c1cccc(C(=O)NCC2(N(C)C)CCCCC2)c1`, the inhibition is reported as inactive: 4.52%.
In the case of `C=C(C)C#CC(O)(C(=O)OC1CCN(C)CC1)c1ccccc1` (stereo unspecified), the inhibition is reported as inactive: 15.1%.
`COc1ccc(Br)c(C(=O)NCC2(N3CCCCC3)CCCCC2)c1` was tested, and the inhibition was inactive: 13.4%.
`CN1[C@@H]2CC[C@H]1CC(OC(=O)C(O)(c1ccccc1)c1ccccc1)C2` (stereo partly specified) was tested, and the inhibition was inactive: -9.96%.
For `O=C(NCC1(N2CCCCC2)CCCCC1)c1cc([N+](=O)[O-])ccc1Cl`, the inhibition was inactive: 3.99%.
For `Cc1ccc(C(=O)NCC2(N3CCCCC3)CCCCC2)cc1`, the inhibition was inactive: 0.18%.
For `CCN(CC)CC(C)C(C)OC(=O)C(O)(c1ccccc1)c1ccccc1` (stereo unspecified), the inhibition was inactive: 0.56%.
With `COc1cc(SC)ccc1C(=O)NCC1(N(C)C)CCCCC1` the inhibition was inactive: 4.05%.
For `CC(C)N1C(=O)CC2(CCN(CCOC(=O)C(O)(c3ccccc3)c3ccccc3)CC2)C1=O`, the inhibition was inactive: 4.52%.
For `Cc1ccccc1C(=O)NCC1(N2CCCCC2)CCCCC1`, the inhibition was inactive: 3.61%.
For `CN(C)c1ccc(C(=O)NCC2(N(C)C)CCCCC2)cc1`, the inhibition was inactive: 2.9%.
With `CN(C)C1CCCC1OC(=O)C(O)(c1ccccc1)c1ccccc1` (stereo unspecified) the inhibition was inactive: 6.3%.
For `COc1ccc(C(=O)NCC2(N(C)C)CCCCC2)cc1`, the inhibition was inactive: 2.4%.
`CCN1CCCC(OC(=O)C2(O)c3ccccc3C=Cc3ccccc32)C1` (stereo unspecified) was tested, and the inhibition was inactive: 5.09%.
With `Cc1cc(C(=O)NCC2(N3CCCCC3)CCCCC2)ccc1[N+](=O)[O-]` the inhibition was inactive: 0.42%.
For `O=C(NCC1(N2CCCCC2)CCCCC1)c1cccc(Br)c1`, the inhibition was inactive: 6.55%.
For `C=CCN1CCN(CCOC(=O)C(O)(c2ccccc2)c2ccccc2)CC1`, the inhibition was inactive: -5.84%.
In the case of `O=C(NCC1(N2CCCCC2)CCCCC1)c1cc(F)c(F)cc1Cl`, the inhibition is reported as inactive: 4.85%.
